Results from patent publication US20040053822A1 (published 2004).

Target: HLA-A*0101 (human)
Assay: competition vs 125I probe peptide, purified HLA

Row | Binder | IC50 [nM]
1 | ATSFSTTINY [MAGE2.68.T2 ATSFSTTINY] | 455
2 | STFSTTINY [MAGE2.69.T2 STFSTTINY] | 490
3 | VTDLGLSY [MAGE2.179.D3 VTDLGLSY] | 2.7
4 | ASDLPTTMNY [MAGE3.68.D3 ASDLPTTMNY] | 2.6
5 | ATSLPTTMNY [MAGE3.68.T2 ATSLPTTMNY] | 208

Target: HLA-A*3101 (human)
Assay: competition with 125I probe peptide, purified HLA

Row | Binder | IC50 [nM]
6 | SVFSTTINR [MAGE2.69.V2R9 SVFSTTINR] | 62

Target: HLA-A*6801 (human)
Assay: competition with 125I probe peptide, purified HLA

Row | Binder | IC50 [nM]
7 | SVFSTTINR [MAGE2.69.V2R9 SVFSTTINR] | 6.7

Target: HLA-A*1101 (human)
Assay: competition with 125I probe peptide, purified HLA

Row | Binder | IC50 [nM]
8 | SVFSTTINR [MAGE2.69.V2R9 SVFSTTINR] | 6.3

Target: HLA-A*3301 (human)
Assay: competition with 125I probe peptide, purified HLA

Row | Binder | IC50 [nM]
9 | SVFSTTINR [MAGE2.69.V2R9 SVFSTTINR] | 88

Target: HLA-A*2402 (human)
Assay: competition vs 125I probe peptide, purified HLA

Row | Binder | IC50 [nM]
10 | SYVKVLHHTF [MAGE2.282.F10 SYVKVLHHTF] | 34.3
11 | TYPDLESEF [MAGE3.97.Y2 TYPDLESEF] | 218
12 | SYPPLHEW [MAGE3.300 SYPPLHEW] | 286
13 | KYVELVHFF [MAGE2.112.Y2F9 KYVELVHFF] | 7.1
14 | IYSKASEYF [MAGE2.150.Y2F9 IYSKASEYF] | 14.6
15 | NYQYFFPVF [MAGE3.142.Y2F9 NYQYFFPVF] | 3.4
16 | IYSKASSSF [MAGE3.150.Y2F9 IYSKASSSF] | 375
17 | IYPKAGLLF [MAGE3.195.Y2F9 IYPKAGLLF] | 9.2
18 | SYSTTINYTF [MAGE2.70.Y2F10 SYSTTINYTF] | 14.8
19 | VYPKTGLLIF [MAGE2.195.Y2F10 VYPKTGLLIF] | 2.9
20 | IYPKAGLLIF [MAGE3.195.Y2F10 IYPKAGLLIF] | 1.2

Target: HLA-A*6802 (human)
Assay: competition with 125I probe peptide, purified HLA

Row | Binder | IC50 [nM]
21 | KMAELVHFL [MAGE3.112M2 KMAELVHFL] | 286

Target: HLA-A*0201 (human)
Assay: competition with 125I probe peptide, purified HLA

Row | Binder | IC50 [nM]
22 | KMAELVHFL [MAGE3.112M2 KMAELVHFL] | 24
23 | KMAELVHFV [MAGE3.112M2V9 KMAELVHFV] | 26

Target: HLA-A*0202 (human)
Assay: competition with 125I probe peptide, purified HLA

Row | Binder | IC50 [nM]
24 | KMAELVHFL [MAGE3.112M2 KMAELVHFL] | 6.7

Target: HLA-DRB1*0101 (human)
Assay: inhibition of 125I probe peptide binding to purified HLA

Row | Binder | IC50 [nM]
25 | NQVMPKTGLLIIVLA [MAGE2.193] | 2630
26 | TGLLIIVLAIIAIEG [MAGE2.199] | 6250
27 | NQIMPKAGLLIIVLA [MAGE3.193] | 114
28 | AGLLIIVLAIIAREG [MAGE3.199] | 1110

Target: HLA-B*5101 (human)
Assay: competition vs 125I probe peptide, purified HLA

Row | Binder | IC50 [nM]
29 | FPKAGLLI [MAGE3.196.F1I8 FPKAGLLI] | 8.2
30 | FPKTGLLII [MAGE2.196.F1 FPKTGLLII] | 32
31 | FPRKLLMQDLI [MAGE2.241.F1 FPRKLLMQDLI] | 367
32 | FPRALVETSYV [MAGE3.274.F1 FPRALVETSYV] | 204
33 | FPRALVETSYI [MAGE3.274.F1I11 FPRALVETSYI] | 117
34 | FPIGHLYIFI [MAGE3.170.F1I10 FPIGHLYIFI] | 5.7
35 | MPVAGLLII [MAGE3.196.V3 MPVAGLLII] | 1.2

Target: HLA-B*3501 (human)
Assay: competition vs 125I probe peptide, purified HLA

Row | Binder | IC50 [nM]
36 | LPTTMNYPI [MAGE3.71.I9 LPTTMNYPI] | 343
37 | FPIGHLYII [MAGE3.170.F1I9 FPIGHLYII] | 77
38 | FPKAGLLIII [MAGE3.196.F1I10 FPKAGLLIII] | 2670

Target: HLA-B*5301 (human)
Assay: competition vs 125I probe peptide, purified HLA

Row | Binder | IC50 [nM]
39 | FPKTGLLII [MAGE2.196.F1 FPKTGLLII] | 266
40 | FPHISYPPL [MAGE2.296.F1 FPHISYPPL] | 490

Target: HLA-B*5401 (human)
Assay: competition vs 125I probe peptide, purified HLA

Row | Binder | IC50 [nM]
41 | FPKTGLLI [MAGE2.196.F1I8 FPKTGLLI] | 37
42 | FPRALIETSYV [MAGE2.274.F1 FPRALIETSYV] | 7.1
43 | FPHISYPPL [MAGE2.296.F1 FPHISYPPL] | 3.8
44 | LPTTMNYPI [MAGE3.71.I9 LPTTMNYPI] | 4.2
45 | FPTTMNYPLW [MAGE3.71.F1 FPTTMNYPLW] | 42
46 | FPLWSQSI [MAGE3.77.F1 FPLWSQSI] | 15
47 | FPIGHLYIFI [MAGE3.170.F1I10 FPIGHLYIFI] | 2.9

Target: HLA-B*0702 (human)
Assay: competition vs 125I probe peptide, purified HLA

Row | Binder | IC50 [nM]
48 | FPRKLLMQDLI [MAGE2.241.F1 FPRKLLMQDLI] | 86
49 | FPRALIETSYV [MAGE2.274.F1 FPRALIETSYV] | 6.3
50 | FPRALVETSYV [MAGE3.274.F1 FPRALVETSYV] | 4.2
51 | FPHISYPPL [MAGE2.296.F1 FPHISYPPL] | 1.7
52 | FPHISYPPI [MAGE3.296.F1I9 FPHISYPPI] | 2.9
53 | FPIGHLYIFI [MAGE3.170.F1I10 FPIGHLYIFI] | 63
54 | MPVAGLLII [MAGE3.196.V3 MPVAGLLII] | 86
55 | FPKAGLLIII [MAGE3.196.F1I10 FPKAGLLIII] | 204

Target: HLA-A*2402 (human)
Assay: competition vs 125I probe peptide, purified HLA
Remark: another data set of the same source

Row | Binder | IC50 [nM]
56 | SYVKVLHHTF [MAGE2.282.F10 SYVKVLHHTF] | 34
57 | TYPDLESEF [MAGE3.97.Y2 TYPDLESEF] | 218
58 | SYPPLHEW [MAGE3.300 SYPPLHEW] | 286
